In US12419308B2, “Phenylpyrazole insecticide compounds and compositions” (priority 2023, dated 2025):

Columns and labels:
[1] = Egg concentration analysis from topically treated chickens; assay type: in vivo; conditions: Compound of Example 1 treatment; Chicken 2, egg from 5 days
Description: One animal is left untreated as a negative control.
A modified and optimized QuEChERS protocol was employed to extract the compounds from eggs. The shell is manually removed, and then each egg is transferred to a clean beaker and homogenized with an electric mixer for small volumes. 5 grams of homogenized egg is put into a 50 mL Falcon tube, and 5 mL of water is added and the samples are shaken for 10 minutes. Next, 10 mL of acetonitrile is added and the samples are shaken again for 10 minutes. Then the roQ salts (4.0 g MgSO4, 1.0 g NaCl, 1.0 SCTD and 0.5 g SCDS, Phenomenex P/N KS08909) are added to each sample, and the mixture is well shaken for 10 minutes. Samples are then centrifuged at 2500 g for 5 minutes at room temperature, and the supernatant is transferred to an HPLC vial for analysis. The same HPLC-MS method is used as described above.
One egg from two chickens is analyzed: one chicken treated with Fipronil and one chicken treated with the Compound of Example 1. The eggs are both from Day 5. The results are shown in the following tables expressed as relative LC-MS peak area: […]

[2] = Plasma concentration analysis in topically treated chickens
Description: To explore the therapeutic potential of the compounds of the present disclosure, live chickens with mite infestation (Dermanyssus gallinae) are treated topically with solutions of test compound, with Fipronil as a positive control. Test solutions are prepared by dissolving the test compound in a mixture of 2-butoxyethanol, ethanol, and water (7:2:1) to reach a final concentration of 0.25% (w/v).
The test solution is administered using a mechanical spray pump delivering 0.5 mL of solution per actuation. The test solution is sprayed over the entire surface of the animal's body from a distance of 10-20 centimeters, resulting in direct contact of the solution with the animal's skin. The dosage applied to each animal is 3 mL/kg, equivalent to 7.5 mg/kg (kg live weight). The dosage is achieved using six actuations of the spray per kg of body weight per day. The treatment is administered once daily for 5 days at 24 hours intervals. One animal is left untreated as a negative control.
Blood samples are taken from each animal before the first treatment (T=0), and at 24-hour intervals thereafter. Each egg produced after a treatment is collected for later analysis.
Plasma samples are derived from each blood sample using standard procedures immediately after blood collection. Plasma is stored frozen at −80° C. until the time of analysis. […]
Plasma samples from Day 3 and Day 5 are analyzed.

N#Cc1nn(-c2c(Cl)cc(C(F)(F)F)cc2Cl)c2nc(O)cc(C(F)(F)F)c12 [Example 1, 1-(2,6-dichloro-4-(trifluoromethyl)phenyl)-6-hydroxy-4-(trifluoromethyl)-1H-pyrazolo[3,4-b]pyridine-3-carbonitrile]
Relative LC-MS peak area of analyte in egg [1]: 3.0
Metabolites observed in plasma (LC-MS) ([2]; chicken plasma after topical treatment): No metabolites
Systemic absorption and plasma accumulation compared to Fipronil ([2]; chickens, topical treatment, day 3 and day 5 plasma): substantially less systemic absorption and plasma accumulation
